Literature values in US20100166701A1, “METHOD FOR TREATING RENAL CELL CARCINOMA USING GLYCOGENOLYSIS INHIBITORS” (priority 2008, published 2010).

System: metastatic RCC
Settings: cited from earlier work

IL-2: interleukin-2, current standard of care in human RCC
toxic side-effects (in vivo): vascular leak syndrome with peripheral edema, weight gain, ascites, and/or plural effusions and pulmonary edema | average response rate (metastatic RCC, high doses): 14 to 20% | increased survival rate over five years (metastatic RCC): ~3%
